In this test the test system is quinpirole-induced yawning in rats. Description: antagonism of quinpirole-induced yawning in rats. Details: species or system Male Sprague Dawley Rats. The settings on record: rat, in vivo. From the text:
Yawning is a behavior that has been linked to activation of dopaminergic neurotransmission. Therefore, the blockage of quinpirole-induced yawning in rats has been used as an animal model to study the potential antagonism of migraine symptoms.
Male Sprague Dawley Rats were used in this example. The animals were allowed 12 day acclimatization before testing and at the time of the study, their body weights ranged from 280-330 grams. The rats were housed in standard size steel cages with four animals per cage and were maintained on a 12 hour light/dark schedule with the lights being on from 6:00 a.m. to 6:00 p.m. All tests were performed between 8:00 a.m. and 2:00 p.m. Six animals were used per group.
S-(−)-3-[3-(methylsulfonyl)phenyl]-1-propyl-piperidine in an amount of 10 or 30 mg/kg in a saline vehicle or the vehicle per se was injected 15 minutes before the dopamine D2 agonist quinpirole in an amount of 0.1 mg/kg in a saline vehicle or the saline vehicle per se was administered to the animals. The animals were then placed individually in a 6″×6″plexiglass observation cages and the number of yawns were counted for the subsequent 30 minutes. The results are shown in FIG. 1 with the data being expressed as the mean total number of yawns per 30 minutes. […]

The values below come from patent US6589965B2, “Method of treating and preventing migraine headaches” (Pharmacia & Upjohn Company, priority 2001, dated 2003).

In the case of `CCCN1CCC[C@@H]2Cc3n[nH]cc3C[C@H]21` [quinpirole], the “mean total number of yawns per 30 minutes” value is on record as 13-15 yawns per 30 minutes.
